Amino acid sequences for entries named in this document (tags omitted).
UniProt Q1XHK0, entry or part of it: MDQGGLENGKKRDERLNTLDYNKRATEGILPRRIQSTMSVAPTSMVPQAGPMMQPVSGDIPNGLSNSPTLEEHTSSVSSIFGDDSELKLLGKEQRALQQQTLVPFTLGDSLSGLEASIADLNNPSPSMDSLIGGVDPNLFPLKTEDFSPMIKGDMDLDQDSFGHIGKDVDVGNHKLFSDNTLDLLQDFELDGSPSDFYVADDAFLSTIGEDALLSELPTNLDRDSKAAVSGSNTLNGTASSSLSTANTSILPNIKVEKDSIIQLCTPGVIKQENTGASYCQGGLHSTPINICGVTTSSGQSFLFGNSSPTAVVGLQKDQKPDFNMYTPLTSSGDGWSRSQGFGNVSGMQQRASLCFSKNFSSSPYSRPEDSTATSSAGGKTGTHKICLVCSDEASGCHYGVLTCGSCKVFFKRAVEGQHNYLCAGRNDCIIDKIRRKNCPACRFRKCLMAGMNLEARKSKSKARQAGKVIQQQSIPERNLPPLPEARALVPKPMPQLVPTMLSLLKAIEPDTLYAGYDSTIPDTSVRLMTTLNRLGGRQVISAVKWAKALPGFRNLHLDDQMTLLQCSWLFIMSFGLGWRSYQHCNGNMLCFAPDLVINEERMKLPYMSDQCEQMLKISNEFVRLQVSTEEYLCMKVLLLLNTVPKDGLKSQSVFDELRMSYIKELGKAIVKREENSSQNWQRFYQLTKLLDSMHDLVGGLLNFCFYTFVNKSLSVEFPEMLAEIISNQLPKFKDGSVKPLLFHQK

According to publication PMC10466050, “A comparative study of human and zebrafish glucocorticoid receptor activities of natural and pharmaceutical steroids” (Frontiers in Endocrinology, 2023):

Molecular target: zfGR (Danio rerio, UniProt Q1XHK0)
Assay: Antagonistic activity assessment in presence of 3 nM dexamethasone, UMLN-zfGR cells
Assay type: cell-based, zebrafish
Details: UMLN-zfGR; with 3 nM dexamethasone; % of maximal luciferase activity induced by 100 nM dexamethasone; at 10^-5M

| Compound | % min act (minimal activity) |
| --- | --- |
| CC(=O)[C@H]1CC[C@H]2[C@@H]3C=CC4=CC(=O)CC[C@@]4(C)[C@@H]3CC[C@]12C [dydrogesterone] | 24 ± 6% |
| CCOC1=CC2=C(C)CC3C(C(O)CC4(C)C3CC(C)C43OCOC34COCO4)C2(C)CC1 (centres unmarked) [forbimenol] | 20 ± 4% |
